Test results reported in ChEMBL document CHEMBL1275469, “VIM-15 and VIM-16, two new VIM-2-like metallo-beta-lactamases in Pseudomonas aeruginosa isolates from Bulgaria and Germany” (2008).

Legend:
[1] = system: Pseudomonas aeruginosa; assay: Ratio of Kcat to Km for Pseudomonas aeruginosa 166301 beta-lactamase VIM-16
[2] = system: C[C@@H](O)[C@H]1C(=O)N2C(C(=O)O)=C(S[C@@H]3CN[C@H](C(=O)N(C)C)C3)[C@H](C)[C@H]12; assay: (§1) Activity of Pseudomonas aeruginosa COL-1 beta-lactamase VIM-2
[3] = system: C[C@@H](O)[C@H]1C(=O)N2C(C(=O)O)=C(SCCNC=N)C[C@H]12; assay: as §1
[4] = system: C[C@@H](O)[C@H]1C(=O)N2C(C(=O)O)=C(S[C@@H]3CN[C@H](C(=O)N(C)C)C3)[C@H](C)[C@H]12; assay: (§2) Ratio of Kcat to Km for Pseudomonas aeruginosa COL-1 beta-lactamase VIM-2
[5] = system: C[C@@H](O)[C@H]1C(=O)N2C(C(=O)O)=C(SCCNC=N)C[C@H]12; assay: as §2
[6] = system: Pseudomonas aeruginosa; details: 9551, Urine

**Q.** Which kcat/Km [1] does the source give for `C[C@@H](O)[C@H]1C(=O)N2C(C(=O)O)=C(S[C@@H]3CN[C@H](C(=O)N(C)C)C3)[C@H](C)[C@H]12` [MEROPENEM] here?
**A.** 70000 M⁻¹ s⁻¹

**Q.** “Beta-lactamase VIM-2 (Pseudomonas aeruginosa) (from UniProt Q9K2N0)” was tested. Which Km [2] did it give?
**A.** 40 µM

**Q.** What about the kcat [2] of the same compound?
**A.** 2.1 s⁻¹

**Q.** And the Km [3]?
**A.** 60 µM

**Q.** And the kcat [3]?
**A.** 20 s⁻¹

**Q.** What about the kcat/Km [4] of the same compound?
**A.** 53000 M⁻¹ s⁻¹

**Q.** And the kcat/Km [5]?
**A.** 330000 M⁻¹ s⁻¹

**Q.** With `CC1(C)S[C@@H]2[C@H](NC(=O)Cc3ccccc3)C(=O)N2[C@H]1C(=O)O` as the compound, how does the kcat/Km [1] read?
**A.** 510000 M⁻¹ s⁻¹

**Q.** Which MIC [6] does the source give for GENTAMICIN here?
**A.** 0.5 µg/mL
